# scFv variants of Ab-14 (light chain) against a SARS-CoV-2 spike peptide

Antigen: PDVDLGDISGINAS, a 14-residue peptide of the SARS-CoV-2 spike HR2 region.

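The parent was found by panning a naive human phage display library on the peptide. AAYL50 was designed without a model: most single CDR substitutions and a random sample of double and triple ones. Affinity was read by AlphaSeq, a pooled yeast mating assay with surface-displayed partners. After mating in shaken culture at 30 °C for 16 h, diploids were selected and their barcode pairs sequenced. The ratio of observed to expected reads was calibrated, replicate by replicate, on BCL2-family standards whose Kd was known from biolayer interferometry. Mating was done three times.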

Parent: Ab-14, a human scFv built as VH, a 15-residue (Gly4Ser)3 linker, VL. Only the CDRs of the light chain vary.
VH: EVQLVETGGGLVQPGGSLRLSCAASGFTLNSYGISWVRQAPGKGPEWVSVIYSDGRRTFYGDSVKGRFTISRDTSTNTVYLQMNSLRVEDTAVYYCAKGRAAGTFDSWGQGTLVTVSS
VL: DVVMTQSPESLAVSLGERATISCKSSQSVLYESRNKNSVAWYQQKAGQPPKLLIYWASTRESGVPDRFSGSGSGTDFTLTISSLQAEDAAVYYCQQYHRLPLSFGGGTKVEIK

Positions count from residue 1 of the parent VL; V29A puts A in place of V.
All variants listed here change Y97 of the VL, counted from its first residue.
Kd is apparent (estimated from mating counts) and averaged on the log scale over replicates with a signal. Smaller is tighter.
A pair that was not seen in any replicate is written "nd"; this usually means weak binding, but a binder can also be missed.
Empty control strains, which show no peptide, gave a signal in 18% of pairings with library AAYL50; the median was 15 µM and 95% of these signals were weaker than 970 nM. No background was subtracted.

Variant V29A+T59L+Y97N showed nd (0 of 3 replicates). Variant S38P+Q95G+Y97L showed 28 nM (3 of 3 replicates). With K24T+N35D+Y97H the result was 2.1 µM (1 of 3 replicates). For S26I+N35I+Y97E, the assay gave nd (0 of 3 replicates). For Y97S, the assay gave 8.5 µM (2 of 3 replicates). Variant R60Q+Y97M gave 720 nM (3 of 3 replicates). Variant S33C+Y97V+H98C showed 4.2 µM (3 of 3 replicates).

Variant S33L+W56M+Y97Q gave nd (0 of 3 replicates). For Y97L, the assay gave 4.6 µM (1 of 3 replicates). For W56F+Y97P+R99E, the assay gave 370 nM (3 of 3 replicates). Variant K24M+R34I+Y97Q showed nd (0 of 3 replicates). With V29T+Y97H+H98F the result was 1.2 µM (2 of 3 replicates). For A40C+Y97C+L100N, the assay gave nd (0 of 3 replicates). Variant S62H+Y97K+P101L gave nd (0 of 3 replicates).

For S62T+Q96W+Y97E, the assay gave nd (0 of 3 replicates). Variant S33N+T59E+Y97E gave nd (0 of 3 replicates). Variant Q27H+R60C+Y97Q showed 170 µM (1 of 3 replicates). For S38R+Y97R+P101V, the assay gave nd (0 of 3 replicates). With S26R+Y31F+Y97K the result was 18 nM (3 of 3 replicates). Variant K24Q+A57W+Y97T gave 6.8 µM (1 of 3 replicates). For E61P+Y97P, the assay gave nd (0 of 3 replicates).

Variant S38D+Y97M+R99I showed 1.6 µM (1 of 3 replicates). For S33K+S58L+Y97T, the assay gave 2.1 µM (1 of 3 replicates). Variant V29E+Y97V+S103A showed 24 nM (3 of 3 replicates). For S28N+N35Y+Y97Q, the assay gave nd (0 of 3 replicates). For V29R+Y97G+S103H, the assay gave nd (0 of 3 replicates). With Y31M+E61K+Y97W the result was nd (0 of 3 replicates). With N37D+S62G+Y97F the result was 32 nM (1 of 3 replicates).

For A57G+Y97N+L102N, the assay gave 4.0 µM (1 of 3 replicates). With L30A+Y97K+S103E the result was 29 µM (3 of 3 replicates). Variant Y97R+H98V+L102E showed nd (0 of 3 replicates). Variant K24L+S28M+Y97A gave 410 nM (1 of 3 replicates). For K24W+Y97C+L102V, the assay gave 16 µM (1 of 3 replicates). For S62G+Y97Q+H98E, the assay gave nd (0 of 3 replicates). Variant Y97D+L100A+S103A gave nd (0 of 3 replicates).

For L30H+R60Q+Y97Q, the assay gave nd (0 of 3 replicates). Variant A40F+Y97I+L102G gave nd (0 of 3 replicates). Variant S26K+Y97M gave nd (0 of 3 replicates). Variant E32G+Y97F+R99W gave 14 µM (1 of 3 replicates). Variant K36L+A40Y+Y97D gave 72 µM (1 of 3 replicates). For R60H+Y97L+R99H, the assay gave nd (0 of 3 replicates). For V29Y+Y97F+H98R, the assay gave nd (0 of 3 replicates).

Variant Y97Q showed 49 µM (2 of 3 replicates). Variant L30D+S58W+Y97F gave 4.9 µM (1 of 3 replicates). For Q27W+E32G+Y97S, the assay gave nd (0 of 3 replicates). For S26Y+V39F+Y97M, the assay gave nd (0 of 3 replicates). For A40H+Y97V, the assay gave nd (0 of 3 replicates). Variant S38C+Y97M+P101I gave nd (0 of 3 replicates). Variant Y31W+V39L+Y97V gave 1.2 µM (3 of 3 replicates).

Variant E61V+Q96E+Y97L gave nd (0 of 3 replicates).

Top 3 of the variants detected in all replicates, tightest first:

{"changes": "S26R+Y31F+Y97K", "Kd": "18 nM", "detected": "3/3"}
{"changes": "V29E+Y97V+S103A", "Kd": "24 nM", "detected": "3/3"}
{"changes": "S38P+Q95G+Y97L", "Kd": "28 nM", "detected": "3/3"}

From the AlphaSeq antibody data of Engelhart et al. 2022 (doi:10.1038/s41597-022-01779-4), copy in the FLAb collection.